# Where “and” joins values, the source holds several entries; their conditions need not be identical. Identical values can stand only once. The entries are a selection whose mix differs from that of the whole data set. Measured potencies and affinities stand elsewhere. Calls of active or inactive are those of the source.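 Rule for the calls: active = z-score of insulin promoter reporter brightness in nuclei below -3 at 5 µM, with at least 500 cells counted; inconclusive = wells with under 500 cells, flagged as toxic or sparse; inactive = the rest.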
# Experiment: decrease of insulin promoter-GFP reporter – imaging, high-content screening, mouse beta cells (AID 1628)
# Settings: MIN6 insulin promoter GFP reporter, at 5 µM, stronger effect = lower value
row,SMILES,z-score
1,c1nnnn1CCn1cnnn1,inactive: -1.04
2,CC(C)C(=O)NC(Sc1ccccc1)C(Cl)(Cl)Cl (centres undefined),inactive: -0.11
3,O=P(Nc1nccs1)(c1ccccc1)c1ccccc1,inactive: 0.21
4,C[C@H]1OP(=O)(Oc2ccccc2)[C@H](O)[C@H](O)[C@H]1N=[N+]=[N-] (some centres undefined),inactive: 0.41
5,O=P(Nc1nc2ccccc2s1)(c1ccccc1)c1ccccc1,inactive: 0.45
6,O=P(Nc1ccccn1)(c1ccc(Br)cc1)c1ccc(Br)cc1,inactive: 0.75
7,O=C(OC1CN2CCC1CC2)c1cccc(Cl)c1 (centres undefined),inactive: -0.3
8,Nc1ccc([As](=O)(O)c2ccc([N+](=O)[O-])cc2)cc1,inactive: 0.48
9,C(Cc1nn[nH]n1)Cc1nn[nH]n1,inactive: 0.33
10,O=[As](O)(c1ccccc1)c1ccc(O)cc1,inactive: 0
11,O=[N+]([O-])c1ncn(CCn2cnc([N+](=O)[O-])n2)n1,inactive: -0.47
12,CCOC(=O)NC(Sc1ccccc1)C(Cl)(Cl)Cl (centres undefined),inactive: -0.6
13,Cc1ccc(NP(=O)(Oc2cccc(C)c2)Oc2cccc(C)c2)nc1,inactive: 0.15
14,c1ccc(-c2nn[nH]n2)c(-c2nn[nH]n2)c1,inactive: -0.11
15,CCNC(=S)/N=C(\N)N[N+](=O)[O-],inactive: -0.59
16,O=C(NC1CCS(=O)(=O)C1)NP(=S)(Oc1ccccc1)Oc1ccccc1 (centres undefined),inactive: -0.14
17,CN(C)C(=O)Oc1noc2ccccc12,inactive: 0.17
18,Cc1ccccc1OP(=O)(Nc1ccccn1)Oc1ccccc1C,inactive: -0.06
19,Cc1ccc(OP(=O)(Nc2ccccn2)Oc2ccc(C)cc2)cc1,inactive: 0.2
20,CC(=O)NC(SC(=S)N(CC(C)C)CC(C)C)C(Cl)(Cl)Cl (centres undefined),inactive: -0.43
21,COC(=O)c1cc2c(s1)N=C(c1ccccc1)N(C)P2(=O)N1CCOCC1 (centres undefined),inactive: -0.4
22,CC(C)(C)C(=O)NC(Sc1ccccc1)C(Cl)(Cl)Cl (centres undefined),inactive: -0.44
23,CCOc1ccc(C2=NCC(CBr)S2)cc1 (centres undefined),inactive: -0.43

row,SMILES,z-score
1,O=P1(Nc2nc3ccc(Cl)cc3s2)COc2ccccc2O1 (centres undefined),inactive: 0.16
2,CC(=O)Nc1ccc(Oc2c([N+](=O)[O-])cc([N+](=O)[O-])cc2[N+](=O)[O-])cc1,inactive: 0.12
3,CC(=O)Nc1ccc([As](=O)(O)O)c(O)c1,inactive: 0.28
4,C[C@@H]1C=CCP(=O)(Oc2ccccc2)O1 (some centres undefined),inactive: -0.09
5,C[C@H]1OP(=O)(Oc2ccccc2)C[C@@H]2O[C@@H]21 (some centres undefined),inactive: 0.65
6,Clc1ccc(Cl)c(NC2=NCC(CBr)S2)c1 (centres undefined),inactive: -0.2
7,Cc1ccc(OP(=O)(Nc2nccs2)Oc2ccc(C)cc2)cc1,inactive: -0.02
8,COc1ccccc1OP(=O)(Nc1ccc(C)cn1)Oc1ccccc1OC,inactive: 0.1
9,Cc1ccc(N/C(=N/P(=O)(N2CCOCC2)N2CCOCC2)N2CCOCC2)cc1,inactive: -0.33
10,NC(=O)c1cc([N+](=O)[O-])cc([N+](=O)[O-])c1N,inactive: -0.23
11,Cc1c2non([O-])c-2c(C)[n+](=O)[n+]1[O-],inactive: 0.15
12,Oc1ccccc1CNc1ccccn1,inactive: 1.03
13,Cc1ccc(NP(=O)(Oc2ccccc2F)Oc2ccccc2F)nc1,inactive: 0.46
14,CCOP(=O)(Nc1ccccc1)OCC,inactive: -0.31 and inactive: 0.07
15,Cc1cc(SC(NC(=O)c2ccc(F)cc2)C(Cl)(Cl)Cl)ncn1 (centres undefined),inactive: -0.56
16,O=P(Nc1nc2ccc(Cl)cc2s1)(c1ccccc1)c1ccccc1,inactive: -0.02
17,O=C(O)c1ccccc1[As](=O)(O)O,inactive: 2.48
18,CC(=O)Nc1ccc([As](=O)(O)O)cc1,inactive: -0.79
19,Nc1cccc2ccc([As](=O)(O)O)cc12,inactive: -1.47
20,CCN(N=Nc1nonc1N)c1nonc1N,inactive: 0.06
21,O=C(Nc1cc([As](=O)(O)O)ccc1O)c1ccccc1,inactive: 0.2
22,O=C(O)CNc1ccc([As](=O)(O)O)cc1,inactive: -0.21
23,O=[N+]([O-])c1cccc(NC2=NCC(CBr)S2)c1 (centres undefined),inactive: -0.22

row,SMILES,z-score
1,O=[N+]([O-])c1ncn(CCn2ncnc2[N+](=O)[O-])n1,inactive: 1.07
2,CC(C)(C)C(=O)NC(Sc1ccncn1)C(Cl)(Cl)Cl (centres undefined),inactive: 0.68
3,CCc1nc2c(n1)c1c(non1O)c1c2no[n+]1[O-],inactive: -0.23
4,Cc1ccc(NP(=O)(Oc2ccccc2)Oc2ccccc2)nc1,inactive: -0.03
5,COc1ccc(C2=NCC(CBr)S2)cc1 (centres undefined),inactive: 0.22
6,CC1CCN(C(=O)Oc2c(Cl)cc(Cl)c3cccnc23)CC1,inactive: -0.04
7,CC(C)=N/N=C(\N)N[N+](=O)[O-],inactive: 0.05
8,CCN(/C(=N/P(=O)(N1CCOCC1)N1CCOCC1)N1CCOCC1)c1ccc(OC)cc1,inactive: 0.2
9,C[N+]1=C2C=CC=CC=C2SC12C([N+](=O)[O-])=CC([N+](=O)[O-])=C[C-]2[N+](=O)[O-] (centres undefined),inactive: -0.5
10,Nc1ccc([As](=O)(O)c2ccc(N)cc2)cc1,inactive: -0.15
11,O=C(COc1ccccc1)OC1CN2CCC1CC2 (centres undefined),inactive: -0.74
12,COP1(=S)c2c(C)nn(CCC#N)c2N=C(c2ccc(F)cc2)N1C (centres undefined),inactive: 0.56
13,CCC(C)N(CC(C)C)C(=S)SC(NC(C)=O)C(Cl)(Cl)Cl (centres undefined),inactive: 0.23
14,CCOC(=O)c1ccc(NC(=O)C(C)(CCl)SC)cc1 (centres undefined),inactive: 0.17
15,Cc1cc(SC(NC(=O)c2ccccc2)C(Cl)(Cl)Cl)nc(C(C)C)n1 (centres undefined),inactive: -0.38
16,CCOC(=O)Nc1ccc([As](=O)(O)O)c(O)c1,inactive: 0.07
17,O=P(Nc1ccccn1)(c1cccc2ccccc12)c1cccc2ccccc12,inactive: -0.05
18,Cc1cc(SC(NC=O)C(Cl)(Cl)Cl)ncn1 (centres undefined),inactive: 1.65
19,O=[N+]([O-])c1ccc(Nc2ccc(Oc3ccc([N+](=O)[O-])cc3[N+](=O)[O-])cc2)c([N+](=O)[O-])c1,inactive: -0.43
20,CCOC(=O)Nc1cccc([As](=O)(O)O)c1,inactive: -0.38
21,Cc1ccc(OP(=O)(Nc2ccc([N+](=O)[O-])cn2)Oc2ccc(C)cc2)cc1,inactive: 0.54
22,Cc1ccc2nc3c(c(C)c2c1)CC(C(Cl)Cl)S3 (centres undefined),inactive: -0.02
23,C[As](=O)(O)c1cccc(C(=O)O)c1,inactive: 0.27

row,SMILES,z-score
1,O=[As](O)(c1ccc(O)cc1)c1ccccc1O,inactive: -0.01
2,O=[N+]([O-])c1cc([N+](=O)[O-])c(-c2ccn[nH]2)s1,inactive: -1.73
3,CC(C)NC(=O)NP(=O)(Oc1ccccc1)Oc1ccccc1,inactive: 0.54
4,ClCCSc1nnc(-c2cccnc2)o1,inactive: 0.67
5,CC(C)c1ccc(OP(=O)(Nc2ccccn2)Oc2ccccc2F)cc1 (centres undefined),inactive: 0.39
6,COc1cc(I)ccc1[As](=O)(O)O,inactive: -0.14
7,COc1ccc2nc(NP(=O)(c3ccccc3)c3ccccc3)sc2c1,inactive: -0.71
8,Cc1c2c(nc3ccccc13)SC(C(Cl)Cl)C2 (centres undefined),inactive: 0.46
9,Cc1cc(=O)[nH]c(N[N+](=O)[O-])n1,inactive: 0.56
10,O=C(OC1CN2CCC1CC2)C12CC3CC(CC(C3)C1)C2 (centres undefined),inactive: 0.51
11,COc1ccc(N/C(=N/P(=O)(N2CCOCC2)N2CCOCC2)N2CCOCC2)cc1,inactive: -0.27
12,O=[As](O)(c1cccc(O)c1)c1cccc(O)c1,inactive: 0.8
13,Cc1cccc(OCC(=O)OC2CN3CCC2CC3)c1 (centres undefined),inactive: -0.37
14,O=C(OC1CN2CCC1CC2)c1ccc(Cl)cc1 (centres undefined),inactive: 1.1
15,COc1cc(C(=O)NCC2(N3CCOCC3)CCCCC2)cc(Cl)c1OC(C)C,inactive: 0.46
16,O=[As](O)(O)c1cccnc1,inactive: -0.11
17,CCOP(=O)(Nc1cccc2ccccc12)OCC,inactive: 0.2
18,COc1cc(C2NCCC3(OCCO3)C2(C)C)cc(OC)c1OC (centres undefined),inactive: -0.31
19,Nc1cccc2c([As](=O)(O)O)cccc12,inactive: -0.09
20,Cc1ccc(NCCc2c([N+](=O)[O-])cc([N+](=O)[O-])cc2[N+](=O)[O-])cc1,inactive: -0.2
21,CCCOP(=S)(Nc1nc(N)cc(=O)[nH]1)OCCC,inactive: 1.75
22,Nc1ccccc1[As](=O)(O)c1ccccc1,inactive: 0.18
23,O=C(O)COc1ccc([As](=O)(O)O)cc1[N+](=O)[O-],inactive: -1.14

row,SMILES,z-score
1,O=P(Nc1nccs1)(c1ccccc1)c1nc2ccccc2s1 (centres undefined),inactive: -0.45
2,CCOP1(=S)c2c(C)nn(CCC#N)c2N=C(c2ccccc2F)N1C (centres undefined),inactive: -0.88
3,CS(=O)(=O)c1cc([N+](=O)[O-])c2no[n+]([O-])c2c1,inactive: 1.11
4,CCOP1(=S)c2c(C)nn(CCC#N)c2N=C(c2ccc(F)cc2)N1C (centres undefined),inactive: -0.46
5,CN(C(=O)Cc1ccccc1)[C@@H]1CC[C@]2(CCCO2)C[C@H]1N1CCCC1,inactive: -0.36
6,O=[N+]([O-])c1ccc2c(c1)nnn2O,inactive: 0.08
7,CN(C)C1(CNC(=O)c2ccc(S(C)(=O)=O)cc2)CCCCC1,inactive: 0.6
8,O=C(/C=C/c1ccccc1)OC1CN2CCC1CC2 (centres undefined),inactive: 0.76
9,CC1CCC(C(C)C)C(OP(=O)(Nc2ccccn2)c2ccccc2)C1 (centres undefined),inactive: 0.16
10,Cc1nn(-c2ccccc2)c2c1P(=O)(N1CCOCC1)N(C)C(c1ccccc1)=N2 (centres undefined),inactive: -1.2
11,Nc1cccc([As](=O)(O)c2ccccc2)c1,inactive: -0.21
12,O=P1(Nc2ccc(Br)cn2)COc2ccccc2OC1,inactive: 0.16
13,O=[As](O)(c1cccs1)c1cccs1,inactive: 0.56
14,Cc1ccc(OCC(=O)OC2CN3CCC2CC3)cc1 (centres undefined),inactive: 1.15
15,O=P1(Nc2ncccn2)COc2ccccc2OC1,inactive: 2.07
16,CC(C)(C)C(=O)NC(Sc1ncccn1)C(Cl)(Cl)Cl (centres undefined),inactive: 0.35
17,Clc1n[nH]nc1-c1nn[nH][15n]1,inactive: 0.99
18,O=P1(Nc2ccccn2)COc2ccccc2OC1,inactive: 0.03
19,CCOP(=O)(Nc1ccc(C)cn1)OCC,inactive: -0.27
20,CC(C)/C=N\N=C(\N)N[N+](=O)[O-],inactive: -0.61
21,CN(C(=O)Cc1ccc(Cl)c(Cl)c1)[C@@H]1CCCC[C@H]1N1CCCC1,inactive: -0.01
22,O=[As](O)(c1ccccc1Br)c1ccccc1Br,inactive: 0.05

# Source: PubChem BioAssay AID1628 (Sanford-Burnham Center for Chemical Genomics, 2009)
